Measurements reported in ChEMBL document CHEMBL2417470, “NMR determination of Electrophorus electricus acetylcholinesterase inhibition and reactivation by neutral oximes” (2013).

experiment: Solubility of the compound in water; details: buffer

Row | SMILES | solubility
1 | O/N=C/c1ccc(Cl)cc1 | soluble
2 | O/N=C/c1cccs1 | soluble
3 | O/N=C/c1ccccc1 | soluble
4 | C[n+]1ccccc1/C=N/O.[I-] | soluble
5 | O=[N+]([O-])c1ccc(/C=N/O)cc1 | soluble
6 | COc1ccc(/C=N/O)cc1 | soluble
7 | O/N=C/c1ccc(F)cc1 | soluble
